Chains of the proteins cited; added tags and fusions are not shown.
UniProt P09207, whole entry, looked up: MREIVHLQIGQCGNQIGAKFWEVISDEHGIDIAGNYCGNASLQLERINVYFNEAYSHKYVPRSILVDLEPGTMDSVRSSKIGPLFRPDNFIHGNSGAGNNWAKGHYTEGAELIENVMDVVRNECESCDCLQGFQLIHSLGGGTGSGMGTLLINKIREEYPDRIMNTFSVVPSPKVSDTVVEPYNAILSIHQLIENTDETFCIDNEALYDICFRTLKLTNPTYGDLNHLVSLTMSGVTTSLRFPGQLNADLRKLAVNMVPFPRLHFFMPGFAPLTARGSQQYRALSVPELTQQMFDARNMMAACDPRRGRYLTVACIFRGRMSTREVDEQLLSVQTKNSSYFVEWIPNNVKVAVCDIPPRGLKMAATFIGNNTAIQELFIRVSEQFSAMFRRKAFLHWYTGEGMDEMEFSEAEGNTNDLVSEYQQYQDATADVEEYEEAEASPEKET

According to PMC9194530, “Interaction of Colchicine-Site Ligands With the Blood Cell-Specific Isotype of β-Tubulin—Notable Affinity for Benzimidazoles” (Frontiers in Cell and Developmental Biology, 2022):

Target: CeTb, colchicine site (Gallus gallus, UniProt P09207)
Assay: Single-point MDL competitive binding inhibition screen, erythrocyte tubulin
Design: species or system chicken (Gallus gallus)
Conditions: 50 µM drug, 1 µM tubulin, 5 µM MDL

## COc1c2c(cc3c1-c1ccc(OC)c(=O)cc1C(NC(C)=O)CC3)OCO2 (stereo not shown) [Cornigerine]
  CeTb % (inhibition of MDL binding): 36%
